One assay deals with SmoM2. Description: Gli-luciferase reporter induced by SmoM2::GFP overexpression (SmoM2/LightII cells). To be noted: SmoM2 versus wild-type Smo. The class given is cell-based. From the text: NIH/3T3 cells were maintained in DMEM containing 10% (v/v) calf serum, penicillin, streptomycin, and L-glutamine. HEK293, L, cos 7, and suFU−/− mouse embryonic fibroblast cells were maintained in DMEM containing 10% (v/v) fetal bovine serum, penicillin, streptomycin, and L-glutamine. Smo::EGFP, SmoM2::GFP, and Ivs::tagRFPT were cloned into pBabe to generate retroviral particles for infection. Smo::EGFP/Ivs::tagRFPT and SmoM2::GFP/Ivs::tagRFPT stable cell lines were generated through viral infection of NIH/3T3^12. A ShhLightII Gli reporter cell line was obtained from the American Type Culture Collection (ATCC) and used in luciferase reporter assays to measure Hh pathway activity. […]
Hh activity assays were performed using ShhLightll cells, Smo/Lightll cells, SmoM2/Lightll cells, and suFU−/− mouse embryonic fibroblasts. In the suFU−/− cells, Hh activity was measured after co-transfection with Gli driven firefly luciferase and TK-renilla luciferase reporters^41. Wnt activity was measured in 293 cells co-transfected with Top-flash and TK-renilla luciferase reporters^42. Cells were cultured and treated in 96 well assay plates (Corning) and incubated with Duo-Glo luciferase substrates (Promega) to measure firefly and renilla luciferase activity sequentially using a Top Count NX Microplate Scintillation and Luminescence Counter (Perkin Elmer). […]
(In general: In a reporter assay the amount or activity of a reporter protein is the signal.)

The subject of a further assay is Hh pathway activity. Description: Gli-luciferase reporter assay, Hh pathway activation by compound alone (NIH/3T3 cells). The conditions noted are these: FA at high concentrations. Type of assay: cell-based. As for the experimental part:
ShhLightII cells and SmoM2/LightII cells were cultured and treated in 96 well assay plates (Corning) and incubated with Duo-Glo luciferase substrates (Promega) to sequentially measure firefly and renilla luciferase activity. Smo, or GFP, expression plasmids were co-transfected into 3T3 cells together with a Gli-responsive firefly reporter and a TK-renilla luciferase reporter contruct to monitor effects of Smo overexpression. Co-transfection of the two reporter constructs was conducted in assays measuring Hh pathway activity in suFU−/− cells. Wnt activity was measured following co-transfection of a Top-flash and renilla luciferase reporter. In both Hh and Wnt activity assays, renilla luciferase reporter activity, or mass of protein, was used to normalize expression values. Luciferase signal was read by TopCount NX Microplate Scintillation and Luminescence Counter (Perkin Elmer). Quantitative PCR probes for Ptch1, Gli1, and β-actin were purchased from Applied Biosystems. Reactions and measurements were performed using on an Applied Biosystems 7900HT at Harvard FAS Center of System Biology. β-actin was used to normalize Ptch1 and Gil1 values.

Take `CC1=C2C[C@H]3[C@@H](CC=C4C[C@@H](O)CC[C@@]43C)[C@@H]2CC[C@]12O[C@@H]1C[C@H](C)CN[C@H]1[C@H]2C` [Cyc, Cyclopamine]: the “IC50's for SmoM2 relative to IC50's for wildtype Smo” value in the assay with SmoM2 is listed as “at least an order of magnitude higher”. Also, the “effect on FA induced activation of the Hh pathway” value in the assay with Hh pathway activity is “blocked”.

The record behind these values is patent publication US20130274233A1, “MODULATORS OF HEDGEHOG SIGNALING PATHWAY” (priority 2012, published 2013).
